Test results taken from BindingDB's records for patent US9518026 (University of Washington Through Its Center For …, 2016).

Target: T1, Uncharacterized protein (Cryptosporidium parvum, UniProt A0A7S7LIM2)
T1 sequence (A0A7S7LIM2 whole entry): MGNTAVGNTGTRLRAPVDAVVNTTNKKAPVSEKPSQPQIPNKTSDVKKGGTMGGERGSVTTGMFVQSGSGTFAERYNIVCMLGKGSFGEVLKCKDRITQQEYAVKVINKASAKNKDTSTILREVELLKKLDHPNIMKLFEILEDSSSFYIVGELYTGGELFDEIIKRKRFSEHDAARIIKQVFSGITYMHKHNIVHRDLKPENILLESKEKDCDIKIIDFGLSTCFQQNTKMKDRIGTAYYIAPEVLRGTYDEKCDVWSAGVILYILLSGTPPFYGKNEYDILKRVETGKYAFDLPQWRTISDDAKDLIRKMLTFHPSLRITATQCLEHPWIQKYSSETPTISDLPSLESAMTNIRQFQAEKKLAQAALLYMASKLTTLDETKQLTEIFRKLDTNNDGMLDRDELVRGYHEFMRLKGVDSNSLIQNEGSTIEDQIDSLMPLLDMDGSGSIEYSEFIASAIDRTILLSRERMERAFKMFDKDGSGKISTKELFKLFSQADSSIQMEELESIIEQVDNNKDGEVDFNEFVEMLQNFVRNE
Assay: Luminescent Kinase Assay

CC(C)(C)n1cc(C(N)=O)c(-c2ccc3c(N)n[nH]c3c2)n1 [US9518026, Example 28]
IC50: 420 nM
